The values below come from ChEMBL document CHEMBL1154476 (Eur J Med Chem, 2008).

Molecules are shown by their SMILES.

This assay concerns the target T1, Ribosyldihydronicotinamide dehydrogenase [quinone] (Homo sapiens, UniProt P16083).
T1 sequence (P16083 whole entry): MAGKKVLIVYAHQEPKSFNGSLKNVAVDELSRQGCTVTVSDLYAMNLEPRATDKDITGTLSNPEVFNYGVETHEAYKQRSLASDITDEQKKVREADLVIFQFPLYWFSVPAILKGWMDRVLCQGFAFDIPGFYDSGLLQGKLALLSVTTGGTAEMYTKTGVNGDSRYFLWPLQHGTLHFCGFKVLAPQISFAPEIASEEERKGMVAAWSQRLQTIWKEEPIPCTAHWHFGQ
Kind of assay: Displacement of [125I]iodomelatonin from MT3/QR2 melatonin binding site expressed in CHO cells. Format: cell-based. On the technique in general: Loss of bound radioactivity is the signal in a displacement assay; it reports binding, not function.

Consider `COC(=O)Nc1ccc2[nH]cc(CCNC(C)=O)c2c1`, for which the half-inhibitory concentration (IC50) was 0.0575 µM.

In general, IC50 refers to the midpoint of a concentration-inhibition curve.
